In paper PMC6321321 (Pharmaceutics, 2018):
Read-outs that look alike come from different tables or passages of the source.

How the values were obtained:
[1] = In situ closed ileum loop administration study: insulin co-administered with additives; settings: in situ rat closed ileal loop, insulin 50 IU/kg alone, mean ± SEM, N=8
Description: (§1) Additional i.p. injections of sodium pentobarbital (12.5 mg/kg) were administered every 1 h to maintain anesthesia. The ileum was exposed following a small midline incision made carefully in the abdomen. Its proximal to ileocecal junction segments (length = 10 cm) were cannulated at both ends using polypropylene tubing and ligated securely to prevent fluid loss. To wash out the intestinal contents, PBS warmed to 37 °C was circulated through the cannula at 5.0 mL/min for 4 min using an infusion pump. The cannulation tubing was removed, the segments were closed tightly and returned carefully to their original location inside the peritoneal cavity. Rats were kept on the board at 37 °C for an additional 30 min to calm biological reactions such as elevated blood glucose levels resulting from the stress imposed by surgery. […] To examine dose dependency, the final concentrations of tryptophan were adjusted to 4, 8, 16 and 32 mM. In the comparison study with three hydrophobic amino acids or metabolite of L-tryptophan, the final concentrations of L-isoleucine, L-proline, L-phenylalanine and serotonin were 32 mM. In the study examining the synergistic effect of L-arginine and L-tryptophan, the final concentration of L-arginine was fixed at 40 mM.
(§2) During the experiment, 0.25 mL blood aliquots were taken from the jugular vein at 0, 5, 10, 15, 30, 60, 120 and 180 min after dosing. The tuberculin syringes (1 mL, Terumo Corp., Tokyo, Japan) were heparinized by the standard procedure of coating the syringe wall with aspirated heparin and then expelling all the heparin. […] The plasma concentrations of FDs were measured with a microplate fluorimeter (Synergy HT, BioTek Instruments Inc., Winooski, VT, USA) at excitation and emission wavelengths of 485 and 528 nm, respectively.

[2] = In situ closed ileum loop study: insulin after pretreatment of the loop with enhancers; settings: rat ileal loop pretreated 30 min with PBS, washed, then insulin 50 IU/kg, mean ± SEM, N=4
Description: as §1, §2

[3] = rat
[4] = relative to s.c. insulin 1 IU/kg

Insulin
AUC (plasma insulin) ([1]; AUC 0-3 h, trapezoids): 8.5 ± 2.5 μU·h/mL
Tmax (plasma insulin) [1]: 9.4 ± 1.1 min
Cmax (plasma insulin) ([1]; plasma insulin by ELISA): 10.6 ± 2.4 μU/mL
BA (relative bioavailability of insulin) [1, 4]: 0.1 ± 0.0%
AUC (plasma insulin) ([2]; AUC 0-3 h): 2.0 ± 0.2 μU·h/mL
Cmax (plasma insulin) ([2]; ELISA): 1.7 ± 0.3 μU/mL
Tmax (plasma insulin) [2]: 7.5 ± 2.5 min
BA (relative bioavailability of insulin) [2, 4]: 0.0 ± 0.0%
AUC (plasma insulin) ([3]; insulin s.c. 1 IU/kg in PBS, AUC 0-3 h, mean ± SEM, N=3): 191.2 ± 5.2 μU·h/mL
Cmax (plasma insulin) ([3]; insulin s.c. 1 IU/kg in PBS, ELISA, mean ± SEM, N=3): 133.8 ± 3.4 μU/mL
Tmax (plasma insulin) ([3]; insulin s.c. 1 IU/kg in PBS, mean ± SEM, N=3): 25.0 ± 5.0 min
BA (relative bioavailability of insulin) ([3]; insulin s.c. 1 IU/kg, reference route of the BA calculation): 100%
